# Ab-95 light chain CDR variants: yeast mating affinities

Data: MIT Lincoln Laboratory AlphaSeq set, Engelhart et al. 2022, doi:10.1038/s41597-022-01779-4, as distributed in FLAb.

Antigen: PDVDLGDISGINAS, a 14-residue peptide of the SARS-CoV-2 spike HR2 region.

Parent scFv Ab-95: VH joined to VL by the linker GGGGSGGGGSGGGGS. Changes lie in the light chain CDRs alone.
VH: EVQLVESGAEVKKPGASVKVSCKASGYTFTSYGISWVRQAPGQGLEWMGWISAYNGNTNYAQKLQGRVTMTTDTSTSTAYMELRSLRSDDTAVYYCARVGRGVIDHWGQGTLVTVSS
VL: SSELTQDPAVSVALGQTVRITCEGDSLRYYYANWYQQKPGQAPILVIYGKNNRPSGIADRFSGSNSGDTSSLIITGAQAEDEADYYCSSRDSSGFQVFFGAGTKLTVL

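The starting antibody came from a phage panning campaign against this peptide. AAYL52 was designed without a model: most single CDR substitutions and a random sample of double and triple ones. In AlphaSeq, yeast of one mating type display the scFv and yeast of the other type display the target. The frequency of each diploid, read from paired DNA barcodes, reflects how well the two displayed proteins bind. A regression on co-assayed BCL2-family reference pairs converts the normalised counts of each replicate to an apparent Kd. There are three technical replicates.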

Substitutions are numbered in sequence along the VL above, starting at 1 (not Kabat).
Numbers give log10(Kd / nM), so 0 is 1 nM and 3 is 1 µM. Smaller is tighter.
A pair that was not seen in that replicate is written "n.d."; this usually means weak binding, but a binder can also be missed.

changes | replicates, log10 nM | control signals
A32E R53I S93P | 3.16 n.d. n.d. | 5 of 9 (4.17)
L27F D91A | 2.61 3.24 3.17 | 0 of 9
D25H S89Y Q96K | n.d. n.d. n.d. | 3 of 9 (3.52)
R53G R90V S93V | 5.48 3.68 3.35 | 3 of 9 (4.21)
L27I N52V F98L | 2.68 2.40 2.07 | 3 of 9 (4.40)
G49R S92H F95N | 4.63 5.94 2.93 | 4 of 9 (4.25)
K50H S93A G94L | 3.19 3.37 2.87 | 6 of 9 (4.16)
G24F D25L S88F | 3.86 n.d. 2.62 | 1 of 9 (3.28)
Y30L S92T S93E | 3.32 2.49 2.97 | 4 of 9 (3.44)
N51A S93D V97S | 3.00 n.d. 2.87 | 2 of 9 (3.78)
S92Q G94W F95V | 2.19 2.34 1.91 | 1 of 9 (2.70)
Y30K N52S S55C | 1.15 1.47 0.78 | 6 of 9 (4.46)
R28N Q96K F98P | 3.46 3.43 3.25 | 3 of 9 (4.25)
S26E Y31P G49S | 4.13 n.d. n.d. | 4 of 9 (4.54)
G24D N51M Q96N | 3.83 3.71 n.d. | 2 of 9 (4.20)
S26D Y30M | 1.69 1.27 0.82 | 0 of 9
R53Y R90M G94F | n.d. 4.90 3.44 | 1 of 9 (4.91)
G24E G94P Q96F | 4.14 n.d. 3.81 | 2 of 9 (3.57)
N33K P54M S93E | n.d. n.d. n.d. | 0 of 9
D25Y R28S R90N | 2.83 3.78 n.d. | 0 of 9
N51Y R53W S88M | n.d. n.d. n.d. | 1 of 9 (4.08)
N52P | 5.48 n.d. n.d. | 2 of 9 (4.01)
S55E S89C R90D | 3.01 2.61 n.d. | 2 of 9 (3.55)
G24H R90K S92F | 2.73 n.d. n.d. | 2 of 9 (3.58)
N52G S55K F95N | 2.92 2.82 2.38 | 6 of 9 (4.20)
P54M S92P F98S | 2.66 2.33 n.d. | 3 of 9 (4.18)
G49F K50S S93N | n.d. n.d. n.d. | 2 of 9 (3.28)
R28Y Y31H R53P | 3.62 3.87 n.d. | 3 of 9 (3.55)
L27V R53L Q96N | n.d. 3.35 n.d. | 0 of 9
N33P N51I P54D | n.d. 5.38 n.d. | 1 of 9 (4.50)
A32E R90G S93M | 3.09 n.d. n.d. | 0 of 9
D25P N33I N51Q | n.d. 2.72 n.d. | 0 of 9

The opening 5 entries, copied out:

changes	replicates, log10 nM	control signals
A32E R53I S93P	3.16 n.d. n.d.	5 of 9 (4.17)
L27F D91A	2.61 3.24 3.17	0 of 9
D25H S89Y Q96K	n.d. n.d. n.d.	3 of 9 (3.52)
R53G R90V S93V	5.48 3.68 3.35	3 of 9 (4.21)
L27I N52V F98L	2.68 2.40 2.07	3 of 9 (4.40)

Three control strains display no target. For library AAYL52, 28% of the pairings with them gave a signal, with a median of 3.91 and one signal in twenty below 2.90, so weak values seen in few replicates may be background. The control count says in how many pairings with the empty strains this scFv gave a signal, with their mean in brackets.
Parent in this assay: reference entry 2.31, copy in this library 2.25.